From patent publication US20080280933A1, “BENZIMIDAZOLYL COMPOUNDS” (priority 2006, published 2008)

Sequences of proteins named here, by UniProt entry; tags and fusion partners are left off. Residues count along the entry.
UniProt Q14416, 19-872 limits assumed: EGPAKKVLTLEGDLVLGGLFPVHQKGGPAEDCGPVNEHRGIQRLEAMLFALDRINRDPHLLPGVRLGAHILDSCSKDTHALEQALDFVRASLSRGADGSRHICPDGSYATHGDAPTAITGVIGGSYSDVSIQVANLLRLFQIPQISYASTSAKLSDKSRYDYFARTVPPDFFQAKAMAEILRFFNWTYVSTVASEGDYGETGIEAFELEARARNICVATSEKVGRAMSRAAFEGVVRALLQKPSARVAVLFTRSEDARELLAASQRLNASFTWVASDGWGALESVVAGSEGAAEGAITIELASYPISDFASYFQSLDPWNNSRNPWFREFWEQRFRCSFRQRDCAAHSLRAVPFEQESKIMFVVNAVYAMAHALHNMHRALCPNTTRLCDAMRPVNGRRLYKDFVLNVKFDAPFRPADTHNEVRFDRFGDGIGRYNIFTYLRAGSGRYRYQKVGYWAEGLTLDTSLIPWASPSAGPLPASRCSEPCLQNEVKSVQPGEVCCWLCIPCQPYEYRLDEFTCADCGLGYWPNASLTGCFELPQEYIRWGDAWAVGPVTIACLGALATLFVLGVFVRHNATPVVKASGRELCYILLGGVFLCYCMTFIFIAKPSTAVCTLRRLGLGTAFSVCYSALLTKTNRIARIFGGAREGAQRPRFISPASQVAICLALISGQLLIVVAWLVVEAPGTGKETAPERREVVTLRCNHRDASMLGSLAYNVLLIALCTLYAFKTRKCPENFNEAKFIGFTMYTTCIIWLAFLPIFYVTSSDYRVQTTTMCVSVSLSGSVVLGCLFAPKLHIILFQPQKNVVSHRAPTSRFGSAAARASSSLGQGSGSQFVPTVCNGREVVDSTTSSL

Target: mGluR2 receptor (metabotropic glutamate receptor 2) (Homo sapiens, UniProt Q14416)
Test: mGluR2 Potentiator Screen, FLIPR, EC10-EC20 glutamate challenge
Protocol: Procedure for mGluR2 Potentiator Screen NLB Methods EC10-EC20 Challenge Cell Culture and Plating:
Cells used for this screen are HEK cells stably transfected with the mGluR2 receptor (metabotropic glutamate receptor 2) and the Gα15 G protein. Clones were identified by functional activity (FLIPR). Cells are grown in growth media containing: DMEM High Glucose with Glutamine and Na Pyruvate (GIBCO), 10% (v/v) Heat inactivate FBS (GIBCO) G418 500 ug/ml (from 50 mg/ml stock) (GIBCO) and Blasticidin 3 ug/ml (from 5 mg/ml stock made in H2O) (Invitrogen).
2 days before the assay cell are trypsinized with 0.25% trysin/EDTA (GIBCO), spun down at 1000 rpm for 5 minutes, resuspended in growth media and plated on polystyrene 384 well black wall/clear bottom poly-D-lysine coated plates at a density of approximately 18,000 cells/well in a volume of 50 μL per well. One day before the assay the growth media is removed from the plates by flicking and replaced with media containing DMEM High Glucose without Glutamine and Na Pyruvate (GIBCO) and 10% (v/v) dialyzed FBS (GIBCO). The reason for the removal of glutamine the day before the assay is to minimize the amount of glutamate that will be present during the assay, as endogenous glutarnate released from the cells can reduce the fluorescent response and interfere with the FLIPR screen.
FLIPR Methods and Data Analysis:
On the day of the assay, the FLIPR assay is performed using the following methods:
The pH is adjusted to 7.4 with 1M NaOH. Prepare a 2 mM (approx.) stock solution of Fluo-4.am (Molecular Probes) dye in DMSO −22 μl DMSO per 50 ug vial (440 μL per 1 mg vial). Make a 1 mM (approx.) flou-4, PA working solution per vial by adding 22 μl of 20% pluronic acid (PA) (Molecular Probes) in DMSO to each 50 ug vial (440 μL per 1 mg vial). Prepare a 250 mM Probenecid (Sigma) stock solution by dissolving 0.71 g into 5 ml 1N NaOH and 5 ml assay buffer (for each liter of assay wash buffer). Make 4 uM (approx.) dye incubation media by adding 2.50 ug vials per 11 ml DMEM high glucose without glutamine (220 ml per 1 mg vial). Add 110 μL probenecid stock per 11 ml (2.5 mM final [concentration]). To the dye media add 3 units/ml of glutamic-pyruvic transaminase (GPT, Sigma) and 3 mM Na Pyruvate. The assay has worked with dye concentrations from 2 uM to 8 uM dye as well. To the assay buffer from drug preparation, add 1.83 mls DMSO and 400 μL. 15.8% P104 (from New Leads biology) per liter for final concentrations of 0.18% DMSO and 0.006% P104. To the assay buffer for cell washing, add probenecid in the same manner and concentration that was used for the dye media.
Remove growth media from cell plates by flicking. Add 50 μl/well dye solution. Incubate 1 hour at 37° C. and 5% CO2. Remove dye solution and wash 3 times with assay buffer+probenecid (100 μl probenecid stock per 10 ml buffer), leaving 30 μL/well assay buffer. Wait at least 10-15 minutes. Compounds and agonist challenge additions are performed with the FLIPR. The in addition is for test compounds, which are added as 15 μL of 4× [concentration] of potentiator. The second 2nd addition is 15 μL of 4× [concentration] of agonist or challenge. This achieves 1× concentration of all compounds only after 2nd addition. The 1st and 2nd additions are performed separately using the FLIPR, which give 2 different data files. Compounds are pretreated at least 30 minutes before agonist addition.
Results are analyzed by dividing the peak fluorescent value of the FLIPR response by the […] to achieve a ratio response. The ratios are then analyzed by curve fitting programs. Since potent compounds can give an inverted U dose response curve (due to effects on endogenous glutamate by the potentiators) points are deleted at concentrations higher than the concentration that gives the maximum effect. Maximum values for dose response curves (forced fitting) are derived from standards on the plate.
Compound Preparation and Glutamate Challenge: […]

[1] = mGluR2 potentiator screen, Table 7

EC50 [nM] | EC50 [1] [nM] | SMILES
3410 |  | CC(=O)OC(C)(C)C(=O)N1CC2(CCN(Cc3nc4ccccc4n3C)CC2)c2cc(Cl)ccc21
 | 7700 | C#CCOc1ccccc1C1CCN(Cc2nc3c(Br)cccc3n2C)CC1
51.5 |  | Cc1cccc(C2CCN(Cc3nc4ccccc4n3C)CC2)c1
> 4430 |  | CC(=O)OCC(=O)N1CC2(CCN(Cc3nc4ccccc4n3C)CC2)c2cc(Cl)ccc21
252 |  | Cc1ccccc1C1(F)CCN(Cc2nc3ccccc3n2C)CC1
2680 |  | COc1ccc2c(c1)CCCC21CCN(Cc2nc3ccccc3n2C)CC1
 | 731 | CCCOc1ccc(Cl)cc1C1CCN(Cc2nc3ccccc3n2C2CC2)CC1

SMILES | EC50 [nM] | EC50 [1] [nM]
Cn1c(CN2CCC3(c4ccc(F)cc4)CC3C2)nc2ccccc21 (centres unmarked) | 106 | 

Read-outs that look alike come from different tables or passages of the source.
